The data set is described as follows: Solubility in solvents. It is filed as physicochemical.

The source of these data is patent publication US20040053896A1, “Pharmaceutically active compound” (priority 2000, published 2004).

In the case of cholyllysltamoxifen sulphate, the Solubility in water result is recorded as “soluble in water”.
